Target: glucagon receptor (Homo sapiens, UniProt P47871)
Details: cAMP Hunter CHO-K1 GCGR

By UniProt entry, the sequences of proteins in these tests, tags left out. Residues count along the entry.
UniProt P47871, 26-477: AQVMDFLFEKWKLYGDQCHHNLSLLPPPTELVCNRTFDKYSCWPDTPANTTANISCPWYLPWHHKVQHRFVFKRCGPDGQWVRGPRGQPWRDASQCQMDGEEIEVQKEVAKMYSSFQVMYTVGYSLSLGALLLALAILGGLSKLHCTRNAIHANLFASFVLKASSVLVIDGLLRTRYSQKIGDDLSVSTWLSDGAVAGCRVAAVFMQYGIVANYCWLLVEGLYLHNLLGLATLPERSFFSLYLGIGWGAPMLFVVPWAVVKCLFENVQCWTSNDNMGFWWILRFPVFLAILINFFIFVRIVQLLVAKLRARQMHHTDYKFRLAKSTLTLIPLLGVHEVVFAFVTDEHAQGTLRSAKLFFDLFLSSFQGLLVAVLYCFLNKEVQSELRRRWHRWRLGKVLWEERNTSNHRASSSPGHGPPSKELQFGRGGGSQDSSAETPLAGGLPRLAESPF

Substance: Oxyntomodulin [OXM]
- higher glucagon receptor binding activation compared to the heterogeneous PEG30-FMS-OXM: 11.1 fold

From patent US9821070B2 (OPKO Biologics Ltd., priority 2012, dated 2017)
